The text below walks through data of PubChem BioAssay AID1346378 (National Center for Advancing Translational Sciences (NCATS), 2018).

Chains of the proteins cited; added tags and fusions are not shown. Lines headed by an entry give the natural chain unless they say otherwise; changes in a name come on top.
UniProt Q9BTU6: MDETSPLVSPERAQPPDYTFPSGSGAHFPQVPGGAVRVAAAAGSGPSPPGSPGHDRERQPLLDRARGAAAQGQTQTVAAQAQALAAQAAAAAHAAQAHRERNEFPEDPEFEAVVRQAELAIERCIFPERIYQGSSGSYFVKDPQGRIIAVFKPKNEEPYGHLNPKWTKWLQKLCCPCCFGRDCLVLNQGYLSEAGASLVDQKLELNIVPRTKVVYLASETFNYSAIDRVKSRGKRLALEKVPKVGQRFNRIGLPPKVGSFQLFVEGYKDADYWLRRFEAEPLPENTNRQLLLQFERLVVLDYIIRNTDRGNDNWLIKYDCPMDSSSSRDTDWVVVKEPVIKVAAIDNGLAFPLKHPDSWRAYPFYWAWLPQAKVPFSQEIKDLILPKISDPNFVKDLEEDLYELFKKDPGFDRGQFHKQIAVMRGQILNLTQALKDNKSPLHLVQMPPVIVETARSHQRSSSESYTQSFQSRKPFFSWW

Values joined by “and” are separate entries in the source; they are usually repeats but may differ in a detail not shown here. Identical values can stand only once. Only a part is listed here, and it is no random draw. Active and inactive are the calls of the source. Cut-off read from the data, not from the text of the source: active = activity change below about -50%; inconclusive = mostly about -30% to -49%; inactive = weaker than that.

The assay deals with Phosphatidylinositol 4-kinase type 2-alpha (Homo sapiens) (UniProt Q9BTU6). In words: qHTS for small molecular inhibitors of PI4K2A.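 Note: -100% = wells without enzyme as full effect.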 The settings on record: purified PI4K2A, ADP-Glo luminescence, 1 h; at 76.9 µM, active compounds read low. An excerpt:
The phosphatidylinositol 4-phosphate (PI4P) is emerging as a key regulator of lipid transfer in ER-membrane contact sites. The four different phosphatidylinositol 4-kinase (PI4K) enzymes generate PI4P in different membrane compartments supporting distinct cellular processes many of which are crucial for the maintenance of cellular integrity but also hijacked by intracellular pathogens. The goal of this screening project is to search for small molecular inhibitors of PI4K2A based on a high throughput screening strategy.The ADP-Glo assay was used as a starting point to develop a miniaturized version for HTS applications. To implement the HTS screen, the PI4K ADP-Glotrade mark Kinase assay (Promega, V9102) was miniaturized for the 1536-well format used at NCGC.
For the robotic screening, the ADP-Glo assay using the ADP-Glotrade mark Kinase Assay kit from Promega was miniaturized and optimized on 1536-well white solid bottom plates (Greiner Bio-one). The substrate, 1.2 mM PI, prepared in the assay buffer (40mM Tris pH7.5, 20mM MgCl2, 1mM EGTA, 0.4% Triton X-100, 0.5mM DTT, 0.5mg/ml BSA) and PI4K2A enzyme, diluted also in the assay buffer to 4ug/mL, were dispensed onto the plates in equal volumes (1microl/well), pinned with 23 nL/well tested compounds or control followed by dispensation of 1microl/well 300microM ATP. The plates were incubated for one hour. Then, 2 µL/well of ADP-Glo reagent was added and incubated for 40 minutes. Next, 4microL/well of Kinase Detection Buffer was added to the plates and incubated for additional 40 minutes. All incubation steps were performed at ambient temperature. The resulting luminescence signal was measured on Viewlux plate reader (PerkinElmer). Adenosine, a partial non-specific inhibitor, was used as a positive control at 100microM final concentration to assess the assay's quality and plate-to-plate reproducibility. We also used "no enzyme" control to gauge the assay's maximal potential inhibition (IC100).
(In general: qHTS replaces the single test concentration by a dilution series.)
In the case of `NC(=O)c1cc([N+](=O)[O-])cc([N+](=O)[O-])c1N`, the activity change, negative = inhibition was inactive: 1.29%.

For the molecule `CN(C(=O)Cc1ccc(Cl)c(Cl)c1)[C@H]1CCCC[C@H]1N1CCCC1`, the activity change, negative = inhibition was inactive: -3.02%.

For `Cc1ccc(N/C(=N/P(=O)(N2CCOCC2)N2CCOCC2)N2CCOCC2)cc1`, the activity change, negative = inhibition is inactive: 6.14%.

As to `O=[N+]([O-])C1C(O)C(O)C([N+](=O)[O-])C(O)C1O` (stereo unspecified), the activity change, negative = inhibition is inactive: 0.143%.

Regarding `CC(C)CC(=O)NC(Sc1ccc(Cl)cc1)C(Cl)(Cl)Cl` (stereo unspecified), the activity change, negative = inhibition was inactive: -0.34%.

With `Nc1cc(N)c2nonc2c1[N+](=O)[O-]`, the activity change, negative = inhibition is inactive: -12.3%.

Regarding `Oc1ccccc1CNc1ccccn1`, the activity change, negative = inhibition is inactive: 2.81%.

For `O=C(NC(Sc1ccncn1)C(Cl)(Cl)Cl)c1ccccc1` (stereo unspecified), the activity change, negative = inhibition was inactive: -2.08%.

In the case of `CCOP(=O)(Nc1ccccc1)OCC`, the activity change, negative = inhibition was inactive: 16.6%.

Consider `Cc1cc(SC(NC(=O)c2ccc(F)cc2)C(Cl)(Cl)Cl)ncn1` (stereo unspecified), for which the activity change, negative = inhibition was inactive: -4.82%.

For the molecule `CN(C(=O)Cc1ccc(Cl)c(Cl)c1)[C@H]1CCCC[C@@H]1N1CCCC1`, the activity change, negative = inhibition is inactive: -5.62% and inactive: -0.0001% and inactive: 2.55%.

`Cc1ccc(NP(=O)(Oc2ccccc2F)Oc2ccccc2F)nc1`: the activity change, negative = inhibition is inactive: -2.02%.

As to `O=C(O)c1ccccc1[As](=O)(O)O`, the activity change, negative = inhibition was inactive: 0.199%.

For the molecule `CC(=O)Nc1ccc([As](=O)(O)O)cc1`, the activity change, negative = inhibition is inactive: -1.36%.

Regarding `CCCC1OP(N)(=O)OCC1CC` (stereo unspecified), the activity change, negative = inhibition was inactive: -3.18%.

Regarding `CN(C)P(=O)(N(C)C)n1c(Nc2ccccc2)nnc1-c1ccccc1`, the activity change, negative = inhibition is inactive: -0.617%.

For `O=P(Nc1nc2ccc(Cl)cc2s1)(c1ccccc1)c1ccccc1`, the activity change, negative = inhibition was inactive: 0.363%.

Take `CCN(N=Nc1nonc1N)c1nonc1N`: the activity change, negative = inhibition is inactive: -3.35%.

Regarding `Nc1cccc2ccc([As](=O)(O)O)cc12`, the activity change, negative = inhibition was inactive: -25.3%.

Regarding `O=C(Nc1cc([As](=O)(O)O)ccc1O)c1ccccc1`, the activity change, negative = inhibition was inactive: -1.03%.

As to `O=P1(N(CCCl)CCCl)OCCCS1` (stereo unspecified), the activity change, negative = inhibition was inactive: -4.49%.

In the case of `O=[N+]([O-])c1cccc(NC2=NCC(CBr)S2)c1` (stereo unspecified), the activity change, negative = inhibition was inactive: 0.141%.

As to `COC(=O)C1(C)COP(=O)(Nc2ccccc2)OC1` (stereo unspecified), the activity change, negative = inhibition was inactive: 0.0759%.

With `O=C(O)CNc1ccc([As](=O)(O)O)cc1`, the activity change, negative = inhibition is inactive: 3.81%.

As to `CC(C)(C)C(=O)NC(Sc1ccncn1)C(Cl)(Cl)Cl` (stereo unspecified), the activity change, negative = inhibition is inactive: -1.06%.

Turning to `O=[N+]([O-])c1ncn(CCn2ncnc2[N+](=O)[O-])n1`, the activity change, negative = inhibition was inactive: -4.03%.

Turning to `CC(=O)N1C2C3N(C(C)=O)C1C1N(C(C)=O)C(C(N1C(C)=O)N3C(C)=O)N2C(C)=O`, the activity change, negative = inhibition is inactive: -0.892%.

`O=[N+]([O-])c1cccc2n[nH]nc12`: the activity change, negative = inhibition is inactive: 5.5%.

As to `Cc1ccc(NP(=O)(Oc2ccccc2)Oc2ccccc2)nc1`, the activity change, negative = inhibition was inactive: -0.456%.

With `CCc1nc2c(n1)c1c(non1O)c1c2no[n+]1[O-]`, the activity change, negative = inhibition is inactive: -20.9%.

As to `COc1ccc(C2=NCC(CBr)S2)cc1` (stereo unspecified), the activity change, negative = inhibition was inactive: -2.31%.

As for `CC(C)=N/N=C(\N)N[N+](=O)[O-]`, the activity change, negative = inhibition was inactive: -3.81%.

As for `CC(C)c1nc(Nc2ccccc2)n(P(=O)(N(C)C)N(C)C)n1`, the activity change, negative = inhibition is inactive: 3.99%.

As for `CN(C)C(=O)OCCc1n(C)cc[n+]1C`, the activity change, negative = inhibition is inactive: 1.08%.

`c1cc(-c2nn[nH]n2)ccc1-c1nn[nH]n1`: the activity change, negative = inhibition was inactive: 5.14%.

As for `CC1CCN(C(=O)Oc2c(Cl)cc(Cl)c3cccnc23)CC1`, the activity change, negative = inhibition was inactive: -0.119%.

Turning to `Nc1ccc([As](=O)(O)c2ccc(N)cc2)cc1`, the activity change, negative = inhibition is inactive: -2.72%.

On to `CCN(/C(=N/P(=O)(N1CCOCC1)N1CCOCC1)N1CCOCC1)c1ccc(OC)cc1`, for which the activity change, negative = inhibition was inactive: -0.442%.

In the case of `O=C(COc1ccccc1)OC1CN2CCC1CC2` (stereo unspecified), the activity change, negative = inhibition is inactive: -13.4%.

For the molecule `O=C(Nc1ccncc1[N+](=O)[O-])c1ccc([N+](=O)[O-])cc1[N+](=O)[O-]`, the activity change, negative = inhibition was inactive: 3.57%.

Consider `O=C(O)C(=O)c1ccc(N(CCCl)CCCl)cc1`, for which the activity change, negative = inhibition is inactive: -8.65%.

For the molecule `COP1(=S)c2c(C)nn(CCC#N)c2N=C(c2ccc(F)cc2)N1C` (stereo unspecified), the activity change, negative = inhibition is inactive: 3.11%.

Turning to `COC(=O)C1(C)COP(=O)(N2CCCC2)OC1` (stereo unspecified), the activity change, negative = inhibition is inactive: 0.54%.

For the molecule `CCC(C)N(CC(C)C)C(=S)SC(NC(C)=O)C(Cl)(Cl)Cl` (stereo unspecified), the activity change, negative = inhibition was inactive: 4.54%.

For the molecule `CCOC(=O)c1ccc(NC(=O)C(C)(CCl)SC)cc1` (stereo unspecified), the activity change, negative = inhibition is inactive: -1.18%.

As to `O=C(OC1CN2CCC1CC2)c1cccc([N+](=O)[O-])c1` (stereo unspecified), the activity change, negative = inhibition is inactive: -1.89%.

Consider `CSc1ccc(Nc2c([N+](=O)[O-])cc([N+](=O)[O-])cc2[N+](=O)[O-])cc1`, for which the activity change, negative = inhibition was inactive: -4.7%.

For the molecule `CCCCOc1ccc(C(=O)NCC2(N3CCCCC3)CCCCC2)cc1OC`, the activity change, negative = inhibition is inactive: -1.62%.

For the molecule `Cc1cc(SC(NC(=O)c2ccccc2)C(Cl)(Cl)Cl)nc(C(C)C)n1` (stereo unspecified), the activity change, negative = inhibition is inactive: 1%.

Regarding `COP(=O)(OC)N1CC1c1ccccc1` (stereo unspecified), the activity change, negative = inhibition is inactive: 1.13%.

As for `CC1CCNP(=O)(N(CCCl)CCCl)O1` (stereo unspecified), the activity change, negative = inhibition was inactive: -2.77%.
